The record followed here is patent publication US9018214B2, “Bicyclic heterocycle compounds and their uses in therapy” (Astex Therapeutics Limited, priority 2011, dated 2015).

For this test, the target named is BIR3 domain of human cIAP-1 (residues 267-363) (Homo sapiens (Human), UniProt Q13490). The experiment in a line: cIAP-1 in vitro competitive displacement binding assay (fluorescence polarization; Probe A AVPIK(5&6FAM)-amide or Probe B AbuRPFK(5&6FAM)-amide). The note with it: read-out: IC50 or PI cIAP1: IC50. On the technique in general: Fluorescence polarisation rises when a labelled molecule tumbles more slowly, as on binding a larger partner.

Where a name gives a salt, the structure may show the parent alone. Read-outs that look alike come from different tables or passages of the source.

With `C[C@@H]1CN(CC(=O)N2CC(C)(C)c3cnc(Cc4ccc(F)cc4F)cc32)[C@@H](CN2CCCC2)CN1` [Example 220, 1-{6-[(2,4-Difluorophenyl)methyl]-3,3-dimethyl-1H,2H,3H-pyrrolo[3,2-c]pyridin-1-yl}-2-[(2R,5R)-5-methyl-2-(pyrrolidin-1-ylmethyl)piperazin-1-yl]ethan-1-one dihydrochloride], the IC50 (as a rule, the point on the concentration scale where inhibition reaches its midpoint) came out at 14 nM.
`COC[C@H]1CN[C@H](C)CN1CC(=O)N1CC(C)(C)c2cnc(C(OC)c3ccccc3)cc21` (stereo partly drawn) [Example 132, 1-{6-[Methoxy(phenyl)methyl]-3,3-dimethyl-1H,2H,3H-pyrrolo[3,2-c]pyridin-1-yl}-2-[(2R,5R)-2-(methoxymethyl)-5-methylpiperazin-1-yl]ethan-1-one dihydrochloride]: the IC50 was 45 nM.
Turning to `CC(C)CC(F)(F)c1cnc2c(c1)N(C(=O)CN1C[C@@H](C)NC[C@@H]1CN1CCOCC1)CC2(C)C` [Example 235, 1-[6-(1,1-Difluoro-3-methylbutyl)-3,3-dimethyl-1H,2H,3H-pyrrolo[3,2-b]pyridin-1-yl]-2-[(2R,5R)-5-methyl-2-(morpholin-4-ylmethyl)piperazin-1-yl]ethan-1-one], the IC50 (Probe B AbuRPFK(5&6FAM)-amide) is 21 nM.
